According to PubChem BioAssay AID504466 (National Center for Advancing Translational Sciences (NCATS), 2011):
The list shows a part of the results, in another mix than the full data. Some tests of the compounds listed are not included; inactive here does not mean inactive elsewhere. Records with an inconclusive call do not appear. Activity calls are given as the source filed them. The call rests on the fitted dose curve; in most records, active means well fitted activation curve with a large enough effect; inconclusive means small, poorly fitted or top-dose-only effect; inactive means no such curve, though single readings can be large or run the other way.

Experiment: qHTS screen for small molecules that induce genotoxicity in human embryonic kidney (HEK293T) cells expressing luciferase-tagged ELG1; further: % of control where 0% means no effect; nearly all actives have a fitted effect of over 60% in size
Details: HEK293T ELG1-luciferase reporter, luminescence, 16 h; at 46 µM (top of the series)
Text: NIH Molecular Libraries Probe Production Network [MLPCN] NIH Chemical Genomics Center [NCGC] MLPCN Grant: 1 R03 MH092164-01 Assay Provider: Kyungjae Myung, NHGRI, NIH Keywords: MLPCN, qHTS, NCGC, genotoxicity, cancer Assay Overview: Cancer cells divide rapidly compared to normal cells in the body. During cell division, cancer cells need to duplicate their genome by DNA replication. The failure of genome duplication leads to cancer cells' death. Therefore, inhibitors of DNA replication could specifically kill cancer cells. Based on this concept, many chemotherapeutic agents were developed and have been used to treat cancer patients. However, there are a limited number of agents available in the clinical setting, and some of those that do exist have low efficacy and severe side effects. Therefore, if we can find the compounds that effectively block DNA replication either by directly damaging DNA or by inhibiting other cellular mechanisms, the options for cancer treatment will be broadened. With this in mind, we developed a quantitative high-throughput ELG1-luciferase reporter gene assay. Since the level of human ELG1 protein is enhanced in response to genetic stresses, increases in luciferase activity can be used to identify compounds that cause genetic stress.
Assay Protocol Summary: For genotoxicity screening, 2,000 cells in 5 uL/well were dispensed into white, solid-bottom 1536-well plates using a solenoid-based dispenser. Following transfer of 23 nL compound or DMSO vehicle by a pin tool, the plates were incubated 16 hr at 37 °C and 5% CO2. 5 ul ONE-Glo (Promega) was then added to each plate and following a 30 min incubation at room temperature, luciferase activity was quantified on a ViewLux CCD-based plate reader.

Row | SMILES | activity change, positive = activation
1 | O=C(OC1CN2CCC1CC2)C(CO)(c1ccccc1)c1ccccc1 (centres undefined) | inactive: 1.53%
2 | CC(C)Oc1ccc(C(=O)NCC2(N(C)C)CCCCC2)cc1 | inactive: -1.18%
3 | CN(C)c1cccc(C(=O)NCC2(N(C)C)CCCCC2)c1 | inactive: 1.8%
4 | COc1ccc(Br)c(C(=O)NCC2(N3CCCCC3)CCCCC2)c1 | inactive: -4.04%
5 | COc1cc(C(=O)NCC2(N(C)C)CCCCC2)c([N+](=O)[O-])cc1OC | inactive: -2.07%
6 | CN(C)C1(CNC(=O)c2ccc(Br)cc2)CCCCC1 | inactive: -0.571%
7 | O=C(NCC1(N2CCCCC2)CCCCC1)c1cccc(Cl)c1 | inactive: 2.98%
8 | COc1cccc(C(=O)NCC2(N3CCCCC3)CCCCC2)c1 | inactive: -0.156%
9 | COc1ccc(Cl)cc1C(=O)NCC1(N(C)C)CCCCC1 | inactive: -1.47%
10 | Cc1ccccc1C(=O)NCC1(N2CCCCC2)CCCCC1 | inactive: 0.19%
11 | CN(C)C1CCCC1OC(=O)C(O)(c1ccccc1)c1ccccc1 (centres undefined) | inactive: -1.4%
12 | CN(C)c1ccc(C(=O)NCC2(N(C)C)CCCCC2)cc1 | inactive: 6.43%
13 | COc1ccc(C(=O)NCC2(N(C)C)CCCCC2)cc1 | inactive: 2.43%
14 | Cc1cc(C(=O)NCC2(N3CCCCC3)CCCCC2)ccc1[N+](=O)[O-] | inactive: -2.82%
15 | CCN1CCCC(OC(=O)C2(O)c3ccccc3C=Cc3ccccc32)C1 (centres undefined) | inactive: -7.8%
16 | O=C(NCC1(N2CCCCC2)CCCCC1)c1cccc(Br)c1 | inactive: -2.48%
17 | C=CCN1CCN(CCOC(=O)C(O)(c2ccccc2)c2ccccc2)CC1 | inactive: -4.84%
18 | O=C(NCC1(N2CCCCC2)CCCCC1)c1cc(F)c(F)cc1Cl | inactive: 4.65%
19 | CN1[C@@H]2CC[C@H]1CC(OC(=O)C(O)(c1ccccc1)c1ccccc1)C2 (some centres undefined) | inactive: -0.295%
20 | O=C(NCC1(N2CCCCC2)CCCCC1)c1cc([N+](=O)[O-])ccc1Cl | inactive: -3.86%
21 | Cc1ccc(C(=O)NCC2(N3CCCCC3)CCCCC2)cc1 | inactive: 0.295%
22 | CCN(CC)CC(C)C(C)OC(=O)C(O)(c1ccccc1)c1ccccc1 (centres undefined) | inactive: -3.1%
23 | COc1cc(SC)ccc1C(=O)NCC1(N(C)C)CCCCC1 | inactive: -0.244%
24 | CC(C)N1C(=O)CC2(CCN(CCOC(=O)C(O)(c3ccccc3)c3ccccc3)CC2)C1=O | inactive: -3.69%
